Results: ChEMBL document CHEMBL3608214, “Optimization of Novel Antagonists to the Neurokinin-3 Receptor for the Treatment of Sex-Hormone Disorders (Part II)” (ACS Med Chem Lett, 2015)

The chains behind the UniProt entries cited, without tags or fusion partners.
UniProt P29371, whole entry: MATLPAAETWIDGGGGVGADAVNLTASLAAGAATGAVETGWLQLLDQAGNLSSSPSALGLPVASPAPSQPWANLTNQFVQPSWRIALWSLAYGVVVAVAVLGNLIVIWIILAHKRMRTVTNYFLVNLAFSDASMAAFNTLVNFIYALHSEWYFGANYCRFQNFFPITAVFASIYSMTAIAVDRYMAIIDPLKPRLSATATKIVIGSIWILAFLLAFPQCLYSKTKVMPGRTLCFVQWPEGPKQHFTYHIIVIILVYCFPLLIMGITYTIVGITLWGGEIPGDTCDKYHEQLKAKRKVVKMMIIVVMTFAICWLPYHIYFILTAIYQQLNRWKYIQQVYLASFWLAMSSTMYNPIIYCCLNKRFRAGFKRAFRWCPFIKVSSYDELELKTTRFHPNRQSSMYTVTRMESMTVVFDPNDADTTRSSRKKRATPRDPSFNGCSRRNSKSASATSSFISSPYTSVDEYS

Key:
Neuromedin-K receptor [1] = target: T1, Neuromedin-K receptor (Homo sapiens, UniProt P29371)
Neuromedin-K receptor [2] = target: T1, Neuromedin-K receptor; remark: listed apart in the source
in vivo [3] = conditions: rhesus monkey, plasma, po, 5 mg/kg
in vivo [4] = conditions: rat, brain, 1 mg/kg

Cc1nnc(-c2nnc3n2CCN(C(=O)c2ccc(F)cc2)[C@@H]3C)s1
Ki (Neuromedin-K receptor [1]): 10 µM | IC50 (Neuromedin-K receptor [2]): 15.8 µM

C[C@@H]1c2nnc(-c3ncns3)n2CCN1C(=O)c1ccc(F)cc1
Ki (Neuromedin-K receptor [1]): 1.26 µM | IC50 (Neuromedin-K receptor [2]): 1.26 µM

Cc1nsc(-c2nnc3n2CCN(C(=O)c2ccc(F)cc2)C3(C)C)n1
Ki (Neuromedin-K receptor [1]): 0.2 µM | IC50 (Neuromedin-K receptor [2]): 0.631 µM

Cc1nsc(-c2nnc3n2CCN(C(=O)c2ccc(F)cc2)[C@@H]3C)n1 [FEZOLINETANT]
fraction unbound at […] (in vivo [3]): 0.532 | fraction unbound at 1 h (in vivo [4]): 0.525
